Our source for the Bio-Ub concentration below which no Ub-adducts were seen (FIG. 7, lanes 8-10), efficiency of thioester intermediate formation compared with tag 1 and lowest ubiquitin concentration values is patent US20080305519A1, “Biochemical method for specific protein labeling” (priority 2006, published 2008).

Protein sequences, listed by entry. Tags and fused reporters are not part of them. Residues count along the entry.
UniProt P68036, whole entry: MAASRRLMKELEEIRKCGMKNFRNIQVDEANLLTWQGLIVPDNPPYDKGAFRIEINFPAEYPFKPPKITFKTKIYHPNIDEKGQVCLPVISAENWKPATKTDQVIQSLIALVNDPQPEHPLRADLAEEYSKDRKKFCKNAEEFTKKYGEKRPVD
UniProt Q29504, 2-1058 limits assumed: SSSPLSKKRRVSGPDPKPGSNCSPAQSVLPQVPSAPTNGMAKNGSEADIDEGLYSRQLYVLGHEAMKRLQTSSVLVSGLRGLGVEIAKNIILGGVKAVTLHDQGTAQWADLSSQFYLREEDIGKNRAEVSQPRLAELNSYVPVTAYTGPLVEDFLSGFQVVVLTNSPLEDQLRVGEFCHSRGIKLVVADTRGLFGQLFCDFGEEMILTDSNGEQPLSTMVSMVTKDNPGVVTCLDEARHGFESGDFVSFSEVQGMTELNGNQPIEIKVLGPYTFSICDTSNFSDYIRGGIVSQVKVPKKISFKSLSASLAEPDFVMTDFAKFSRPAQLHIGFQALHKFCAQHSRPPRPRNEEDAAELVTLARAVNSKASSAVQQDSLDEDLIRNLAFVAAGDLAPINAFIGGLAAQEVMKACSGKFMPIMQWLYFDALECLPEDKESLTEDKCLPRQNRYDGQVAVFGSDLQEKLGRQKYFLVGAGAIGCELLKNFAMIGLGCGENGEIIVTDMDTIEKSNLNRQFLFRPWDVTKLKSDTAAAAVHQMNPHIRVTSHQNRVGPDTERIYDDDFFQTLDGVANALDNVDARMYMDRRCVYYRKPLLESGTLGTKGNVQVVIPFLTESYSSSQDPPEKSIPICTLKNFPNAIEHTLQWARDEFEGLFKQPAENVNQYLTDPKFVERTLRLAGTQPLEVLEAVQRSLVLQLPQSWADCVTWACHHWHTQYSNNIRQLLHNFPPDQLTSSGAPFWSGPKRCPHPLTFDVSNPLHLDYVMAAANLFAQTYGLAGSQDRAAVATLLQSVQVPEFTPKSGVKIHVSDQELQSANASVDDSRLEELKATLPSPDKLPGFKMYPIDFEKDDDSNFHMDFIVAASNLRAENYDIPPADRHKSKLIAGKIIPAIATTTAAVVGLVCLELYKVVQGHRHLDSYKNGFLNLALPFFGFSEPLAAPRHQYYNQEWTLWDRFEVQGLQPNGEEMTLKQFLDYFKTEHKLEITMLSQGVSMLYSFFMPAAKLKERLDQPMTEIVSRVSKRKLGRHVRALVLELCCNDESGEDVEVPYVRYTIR

Assay [1] deals with UbCH7 (E2), human recombinant (Boston Biochem cat. # E2-640) (human) (UniProt P68036). Kind of assay: cell-based or functional assay.
In assay [2] the target is ubiquitin activating enzyme (E1), rabbit (Boston Biochem cat. # E-302) (rabbit) (UniProt Q29504). Description: cell-based or functional assay.

For “His6-Biotin-N-terminal Ubiquitin, human recombinant (Boston Biochem cat. # U-560) (from UniProt P0CG48 1-76)”, in assay [1], the Bio-Ub concentration below which no Ub-adducts were seen (FIG. 7, lanes 8-10) is less than 21 nM. In assay [2], this substance returned a Bio-Ub concentration below which no Ub-adducts were seen (FIG. 7, lanes 8-10) of less than 21 nM; an efficiency of thioester intermediate formation compared with tag 1 of 265 fold; a lowest ubiquitin concentration at which ubiquitin activation (thioester intermediate) was detectable of 64 nM.
